# Apparent affinities of Ab-14 variants for a coronavirus HR2 peptide

Values reported by Engelhart et al. 2022, doi:10.1038/s41597-022-01779-4 (FLAb copy).

All variants were tested on one target, the spike HR2 peptide PDVDLGDISGINAS (SARS-CoV-2).

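The starting antibody came from a phage panning campaign against this peptide. The library (AAYL49) carries one to three amino acid substitutions per variant, with no insertions or deletions. In AlphaSeq, yeast of one mating type display the scFv and yeast of the other type display the target. The frequency of each diploid, read from paired DNA barcodes, reflects how well the two displayed proteins bind. Each replicate has its own calibration line, from reference interactions of the BCL2 family. There are three technical replicates.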

Parent: Ab-14, a human scFv built as VH, a (GGGGS)3 linker, VL. Only the CDRs of the heavy chain vary.
VH: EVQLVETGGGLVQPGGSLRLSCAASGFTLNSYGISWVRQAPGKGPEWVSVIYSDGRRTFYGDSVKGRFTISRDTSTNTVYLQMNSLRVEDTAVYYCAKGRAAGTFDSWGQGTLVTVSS
VL: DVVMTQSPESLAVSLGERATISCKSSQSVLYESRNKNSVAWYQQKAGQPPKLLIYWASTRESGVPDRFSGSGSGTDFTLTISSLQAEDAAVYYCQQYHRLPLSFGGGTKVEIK

Substitutions are numbered in sequence along the VH above, starting at 1 (not Kabat). All variants listed here change L29 of the VH, counted from its first residue. The Kd shown is the geometric mean over detected replicates; a lower Kd is a better binder. Where no diploid with the target was found in any replicate, the entry reads "nd": below detection, most likely a poor binder, though not proof of it.

* L29K/I34F/R100I -> nd (0 of 3 replicates)
* L29S/D62H/D106T -> nd (0 of 3 replicates)
* G26H/L29W/S35R -> nd (0 of 3 replicates)
* L29F/T58I/V64L -> nd (0 of 3 replicates)
* L29Y/D62P/T104R -> nd (0 of 3 replicates)
* T28D/L29W/G61T -> 96 nM (3 of 3 replicates)
* L29S/N30C/D62F -> nd (0 of 3 replicates)
* L29T/R57T -> 5.8 µM (1 of 3 replicates)
* L29D/I34C/Y52M -> nd (0 of 3 replicates)
* L29K/R57W -> 33 µM (2 of 3 replicates)
* L29I/G33C/T104S -> nd (0 of 3 replicates)
* L29K/K65G/F105P -> nd (0 of 3 replicates)
* L29P/D106P -> nd (0 of 3 replicates)
* L29F/S31L/S53Y -> 19 µM (1 of 3 replicates)
* T28E/L29Y -> nd (0 of 3 replicates)
* L29C/I51M/G99Q -> nd (0 of 3 replicates)
* L29G/G33V/S107F -> nd (0 of 3 replicates)
* L29T/G61M -> nd (0 of 3 replicates)

Extract of 2 entries:

| changes | Kd (apparent) | seen in |
|---|---|---|
| L29G/G33V/S107F | nd | 0/3 |
| L29K/K65G/F105P | nd | 0/3 |

Background: pairings of library AAYL49 with three empty control strains gave a value in 15% of cases (median 11 µM, 5th percentile 680 nM). Values in that range, when seen in few replicates, are hard to tell from nonspecific mating.